# Laboratory results as given in PubChem BioAssay AID2284362 (EPA ToxCast).
# Only a part is listed here, and it is no random draw. Records with an inconclusive call do not appear. Calls of active or inactive are those of the source. Rule for the calls: active = hit-call score of the fitted dose curve at least 0.9, where 1 is the maximum; inconclusive = response in the unintended direction; inactive = score below 0.9.
# Assay: CCTE_Mundy_HCI_iCellGABA_NOG_NeuriteCount: CCTE's Neurite Outgrowth Assay in iCellGABA cells for Neurite Count, Mundy Lab
# Protocol: CCTE_Mundy_HCI_iCellGABA_NOG is a multiplexed, cell-based-readout assay that uses iCell GABANeurons from FUJIFILM Cellular Dynamics, Inc. (FCDI), human GABAergic enriched neurons derived from induced pluripotent stem (iPS) cells, with measurements taken at 50.33 hours after chemical dosing in a microplate: 96-well plate.CCTE_Mundy_HCI_iCellGABA_NOG_NeuriteCount is one of four components of the CCTE_Mundy_HCI_iCellGABA_NOG assay. It measures neurite outgrowth related to number of neurites using High Content Imaging of fluorescently labelled markers.Data from the assay component CCTE_Mundy_HCI_iCellGABA_NOG_NeuriteCount was analyzed at the endpoint CCTE_Mundy_HCI_iCellGABA_NOG_NeuriteCount in the positive analysis fitting direction relative to DMSO as the negative control and baseline of activity. Using a type of morphology reporter, loss-of-signal activity can be used to understand developmental effects.
# Exposure starts 2 hours post-plating by adding 10 ul of the working solution to 90 ul of media in the wells for a 1/10 dilution. […] A Cellomics ArrayScan VTi HCS Reader is used for automated image acquisition and analysis of neurite outgrowth.
row,Structure (SMILES),AC50
1,CC(C)OP(=S)(OC(C)C)SCCNS(=O)(=O)c1ccccc1,active: 50 µM
